Results: article PMC5201116, “Bioactive Flavonoids and Catechols as Hif1 and Nrf2 Protein Stabilizers - Implications for Parkinson’s Disease” (Aging and Disease, 2016)

Columns and labels:
Assay type in all cases: cell-based
[1] = test system: HIF1 ODD-luc reporter (SH-SY5Y cell line); assay: HIF1 ODD-luc reporter assay; conditions: Homo sapiens, 3 h incubation, read-out: ODD-luc fold activation
Method: (§1) SH-SY5Y cell lines stably expressing HIF1 ODD-luc or Neh2-luc reporters were grown in the DMEM/F12 supplemented with GlutaMAX (Thermo Fisher Scientific) containing 10% FBS, 100 U/ml penicillin, and 100 μg/ml streptomycin and plated into 384-well white flat-bottom plates at 7,000 cell/well in 30 µl serum and incubated overnight at 37°C, 5% CO2. The next day compounds were added to a final concentration of 10 µM and the plates were incubated for 3 hours at 37°C. Reporter activation after 3 h incubation with the studied compound was compared to that for ciclopirox (HIF1 ODD-luc reporter) or TBHQ (Neh2-luc reporter), taken as 100%. Luciferase reporter activity was measured with a SteadyGlo reagent from Promega providing stable reading for 1 h.
(§2) Cells were plated at the density of 25,000 cell per well using a WellMate multichannel dispenser from Matrix (Thermo Fisher Scientific, Waltham, MA) and grown overnight on DMEM/F12+GlutaMAX (100 µl per well). Then an inhibitor was added, and the plates were incubated for a fixed time interval; the medium was removed, cells lysed, and luciferase activity was measured on a SpectraMax M5e platereader (Molecular Devices, Sunnyvale, CA) with BrightGlo™ reagent (Promega, Madison, WI). The reporter activation was normalized to the background luminescence. […]

[2] = test system: HRE-luciferase reporter (HT22 hippocampal cell line); assay: HRE-luc reporter assay; conditions: Mus musculus, HT-22, 3 h, read-out: HRE-luc fold activation
From the text: A promoter-reporter construct that contained 68 bp of a known hypoxia and HIF-1 regulated gene, enolase, containing a wild type hypoxia response element (HRE, 5’-RCTGT-3’), is a widely used approach for screening for HIF activators of different mechanism of action. A cell-based assay with HRE-luciferase reporter system is based on transfected immortalized hippocampal cell line (HT22) and allows screening for a broad spectrum of compounds that include: activators of HIF transcription; activators of HIF binding to HRE; and effectors of HIF protein stability (PHD inhibitors, pVHL & proteasome inhibitors). The assay was performed the same way as for HIF ODD-luc reporter except the cells were plated at the density of 10,000 cell per well and incubated overnight.

[3] = test system: Neh2-luc reporter (SH-SY5Y cell line); assay: Neh2-luc reporter assay; conditions: at 10 µM, 3 h incubation
Method: as §1, §2

O=c1c(O)c(-c2ccccc2)oc2cc(O)ccc12 [compound 2, 3,7-Dihydroxy-]
fold induction at 10 µM [1]: 2 ± 0.2 | fold induction at 10 µM [2]: 1.5 ± 0.2 | Neh2-luc fold activation [3]: Inactive
